# Measured values as given in PubChem BioAssay AID1942 (Johns Hopkins Ion Channel Center, 2009).
# The chains behind the UniProt entries cited, without tags or fusion partners.
# UniProt O88943, whole entry: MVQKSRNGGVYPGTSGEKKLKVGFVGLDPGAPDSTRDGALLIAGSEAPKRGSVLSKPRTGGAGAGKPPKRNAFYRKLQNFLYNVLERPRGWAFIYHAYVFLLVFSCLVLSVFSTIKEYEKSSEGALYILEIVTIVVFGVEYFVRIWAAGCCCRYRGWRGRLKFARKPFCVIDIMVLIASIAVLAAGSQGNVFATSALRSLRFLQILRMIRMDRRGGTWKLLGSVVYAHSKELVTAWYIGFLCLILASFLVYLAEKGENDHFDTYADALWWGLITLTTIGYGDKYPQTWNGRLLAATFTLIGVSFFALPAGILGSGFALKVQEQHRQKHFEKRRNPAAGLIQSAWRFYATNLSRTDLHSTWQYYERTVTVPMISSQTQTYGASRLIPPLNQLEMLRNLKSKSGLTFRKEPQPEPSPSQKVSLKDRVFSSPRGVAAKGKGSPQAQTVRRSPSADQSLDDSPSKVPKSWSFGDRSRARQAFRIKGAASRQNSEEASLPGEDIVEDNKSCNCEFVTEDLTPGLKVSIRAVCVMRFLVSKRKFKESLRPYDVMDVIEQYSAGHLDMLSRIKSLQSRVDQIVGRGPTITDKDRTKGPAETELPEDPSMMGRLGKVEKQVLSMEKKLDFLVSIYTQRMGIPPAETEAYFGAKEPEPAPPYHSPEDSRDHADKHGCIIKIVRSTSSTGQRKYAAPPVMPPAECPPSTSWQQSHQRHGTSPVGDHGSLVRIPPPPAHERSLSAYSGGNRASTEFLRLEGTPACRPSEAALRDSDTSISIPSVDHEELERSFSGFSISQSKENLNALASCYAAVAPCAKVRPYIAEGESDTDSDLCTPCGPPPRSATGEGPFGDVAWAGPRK
# The list shows a part of the results, in another mix than the full data. The source made the active and inactive calls.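 How the source made its calls: active means activity change at or above the mean plus 3 SD of buffer wells without dofetilide, per plate; inactive means the rest.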
# Target: Potassium voltage-gated channel subfamily KQT member 2 (Rattus norvegicus) (UniProt O88943)
# Assay: KCNQ2 potentiation in CHO cells – cell-based, FluxOR thallium flux, counter-screen for hERG block protector project, confirmation (AID 1942);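 further: normalized value minus buffer-control mean plus three SD of buffer wells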
# Conditions: FluxOR thallium flux fluorescence, at 10 µM, stronger effect = higher value
row,SMILES,"activity change, less the hit threshold"
1,CCOC(=O)N1CCC(Nc2ccc(OC)cc2)CC1,inactive: -6.8%
